# According to publication PMC6821926, “Diaminoquinazoline MMV675968 from Pathogen Box inhibits Acinetobacter baumannii growth through targeting of dihydrofolate reductase” (Scientific Reports, 2019):
# Chains of the proteins cited; added tags and fusions are not shown.
# UniProt A0A098SJI9, entry or part of it: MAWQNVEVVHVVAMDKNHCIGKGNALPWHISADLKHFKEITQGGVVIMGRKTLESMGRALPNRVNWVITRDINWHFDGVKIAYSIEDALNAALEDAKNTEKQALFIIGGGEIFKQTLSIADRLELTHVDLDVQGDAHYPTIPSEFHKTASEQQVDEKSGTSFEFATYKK
# Biological target: T1, A. baumannii dihydrofolate reductase (AbDHFR) (Acinetobacter baumannii, UniProt A0A098SJI9)
# T1 construct: gene folA; AbDHFR expressed from pET15b in E. coli BL21(DE3)
# Assay: DHFR activity assay (A340) in lysate of E. coli BL21(DE3) overexpressing AbDHFR
# Format: biochemical
smiles,measurement,value
"CN(Cc1cnc2nc(N)nc(N)c2n1)c1ccc(C(=O)N[C@@H](CCC(=O)O)C(=O)O)cc1 [MTX, methotrexate]",IC50,4.8 nM
